Here are results for two compounds from US12539304B2, “Combination of an anaplastic lymphoma kinase inhibitor and a cyclin dependent kinase inhibitor” (Pfizer Inc., priority 2020, dated 2026).

For this assay, the system named is MGH979-6.7R8 (AlecR, G1202R) cells. Briefly: CyQUANT cell proliferation assay, MGH979-6.7R8. It is filed as cell-based, human. The conditions noted are these: FIG. 7C. The method, then: MGH048-4F (Crizo/Alec/LorlaR), MGH902-1C (Crizo/CeriR) and MGH979-6.7R8 (AlecR, G1202R) were acquired from MGH through a research contract. Specimens from patients relapsed on various lines ALK inhibitor therapies were utilized to derive the cell lines. […] Cell viability and IC50 were measured in standard CyQUANT cell proliferation assays.

Take `CCc1cc2c(cc1N1CCC(N3CCOCC3)CC1)C(C)(C)c1[nH]c3cc(C#N)ccc3c1C2=O` [alectinib]: the “Sensitivity to single agent” value is listed as “resistant”.
Regarding `C[C@@H](Oc1cc(-c2cnn(C3CCNCC3)c2)cnc1N)c1c(Cl)ccc(F)c1Cl` [crizotinib], the “Sensitivity to single agent” value is “resistant”.
